Amino acid sequences for entries named in this document (tags omitted). Residues count along the entry.
UniProt Q99Y92, 37-995 limits assumed: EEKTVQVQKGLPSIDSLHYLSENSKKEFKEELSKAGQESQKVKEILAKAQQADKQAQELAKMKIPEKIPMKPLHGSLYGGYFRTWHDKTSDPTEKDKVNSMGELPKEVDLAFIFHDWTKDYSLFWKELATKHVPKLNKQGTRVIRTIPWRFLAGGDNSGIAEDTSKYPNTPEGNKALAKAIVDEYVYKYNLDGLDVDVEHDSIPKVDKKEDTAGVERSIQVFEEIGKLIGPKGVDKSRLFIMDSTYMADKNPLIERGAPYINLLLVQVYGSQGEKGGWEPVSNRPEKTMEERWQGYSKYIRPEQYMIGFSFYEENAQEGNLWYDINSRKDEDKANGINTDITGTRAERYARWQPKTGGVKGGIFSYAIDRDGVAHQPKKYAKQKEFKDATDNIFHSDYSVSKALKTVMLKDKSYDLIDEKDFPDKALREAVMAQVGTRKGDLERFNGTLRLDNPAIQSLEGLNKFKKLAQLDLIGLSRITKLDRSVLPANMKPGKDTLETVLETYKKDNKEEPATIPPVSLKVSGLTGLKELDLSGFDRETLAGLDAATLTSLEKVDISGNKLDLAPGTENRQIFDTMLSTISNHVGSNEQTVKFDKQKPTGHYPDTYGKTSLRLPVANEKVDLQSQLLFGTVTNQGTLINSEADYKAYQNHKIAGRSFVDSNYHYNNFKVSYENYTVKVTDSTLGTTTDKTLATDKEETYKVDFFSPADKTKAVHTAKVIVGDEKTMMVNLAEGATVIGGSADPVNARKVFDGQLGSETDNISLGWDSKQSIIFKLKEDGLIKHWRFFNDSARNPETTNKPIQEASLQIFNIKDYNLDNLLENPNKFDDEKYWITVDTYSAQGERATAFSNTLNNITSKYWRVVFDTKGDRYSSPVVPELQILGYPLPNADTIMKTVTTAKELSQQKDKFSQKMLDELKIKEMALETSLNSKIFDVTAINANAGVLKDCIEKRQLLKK
UniProt T1WGN1, 38-843 limits assumed: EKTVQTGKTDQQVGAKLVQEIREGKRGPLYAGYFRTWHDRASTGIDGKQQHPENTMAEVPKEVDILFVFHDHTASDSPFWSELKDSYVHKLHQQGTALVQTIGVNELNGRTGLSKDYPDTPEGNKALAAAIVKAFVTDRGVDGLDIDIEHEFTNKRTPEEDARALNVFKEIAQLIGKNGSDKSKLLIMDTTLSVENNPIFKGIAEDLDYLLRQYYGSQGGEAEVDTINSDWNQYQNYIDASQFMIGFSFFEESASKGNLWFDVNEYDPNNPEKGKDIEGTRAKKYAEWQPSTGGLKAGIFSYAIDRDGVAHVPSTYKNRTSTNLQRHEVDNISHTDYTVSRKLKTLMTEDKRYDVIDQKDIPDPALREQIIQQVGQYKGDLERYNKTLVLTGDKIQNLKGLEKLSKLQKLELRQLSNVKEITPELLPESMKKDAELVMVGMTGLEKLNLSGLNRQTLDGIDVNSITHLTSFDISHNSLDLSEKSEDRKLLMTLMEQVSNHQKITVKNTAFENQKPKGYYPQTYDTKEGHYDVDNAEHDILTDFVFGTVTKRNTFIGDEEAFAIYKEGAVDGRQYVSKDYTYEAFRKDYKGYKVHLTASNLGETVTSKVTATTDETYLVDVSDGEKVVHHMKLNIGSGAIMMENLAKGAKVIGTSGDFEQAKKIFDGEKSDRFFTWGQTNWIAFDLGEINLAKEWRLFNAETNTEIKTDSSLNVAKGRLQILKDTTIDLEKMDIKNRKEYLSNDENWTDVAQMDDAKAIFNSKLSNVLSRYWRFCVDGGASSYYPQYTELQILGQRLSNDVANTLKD

In EP4840868A1, “NOVEL DISACCHARIDE LINKER, PREPARATION METHOD THEREFOR AND USE THEREOF” (dated 2026):

Experiments:
Endo S [1] = target: T1, Endo S (Streptococcus pyogenes serotype M1, UniProt Q99Y92); experiment: Substrate specificity: transglycosylation of disaccharide linkers onto wild-type pertuzumab, LC-MS; details: Endo S 0.4 mg/mL; wild-type pertuzumab 10 mg/mL; linker 1.67 mM; pH 7.4, 25°C; after 6 hours
Endo S2 [2] = target: T2, Endo S2 (Streptococcus pyogenes serotype M49, UniProt T1WGN1); experiment: as above; details: Endo S2 0.4 mg/mL; wild-type pertuzumab 10 mg/mL; linker 1.67 mM; pH 7.4, 25°C; after 6 hours
Endo Si [3] = experiment: as above; details: Endo Si 0.4 mg/mL; wild-type pertuzumab 10 mg/mL; linker 1.67 mM; pH 7.4, 25°C; after 6 hours
Endo Se2 [4] = experiment: as above; details: Endo Se2 0.4 mg/mL; wild-type pertuzumab 10 mg/mL; linker 1.67 mM; pH 7.4, 25°C; after 6 hours
Endo S [5] = target: T1, Endo S; experiment: Transglycosylation (transfer) activity toward disaccharide linkers, deglycosylated antibody, time course, reduced LC-MS; details: for Transglycosylation efficiency (%): Endo S 0.4 mg/mL, deglycosylated antibody 10 mg/mL, linker 1.67 mM, pH 7.4, 25°C; for transglycosylation efficiency (in words): Endo S, deglycosylated antibody
Description: (§1) A wild-type antibody comprising the Fc segment of SEQ ID NO: 5 was dissolved in a buffer containing 20 mM phosphate and 150 mM NaCl at pH 7.4 (10 mg/mL). Wild-type Endo S2 was added to a final concentration of 0.4 mg/mL for hydrolysis, followed by incubation overnight at 37°C. A deglycosylated antibody containing one N-acetylglucosamine or core-fucosylated N-acetylglucosamine was obtained through purification using Protein A magnetic beads.
(§2) The prepared deglycosylated antibody, disaccharide linker (i.e., compounds G0-G2), and wild-type endoglycosidase (i.e., Endo S, Endo S2, Endo Si, or Endo Se2) were used such that the concentrations of the respective components were sequentially 10 mg/mL, 1.67 mM (25 equivalents relative to the antibody concentration), and 0.4 mg/mL. The pH of the reaction system was adjusted to 7.4, and the reaction temperature was 25°C. At 0.5, 1, 2, 3, and 6 hours, 4 µL of sample was taken out, and 36 µL of PBS solution containing 0.1% formic acid was added to terminate the reaction, followed by analysis by reduced LC-MS.

Endo S2 [6] = target: T2, Endo S2; experiment: as above; details: Endo S2 0.4 mg/mL, deglycosylated antibody 10 mg/mL, linker 1.67 mM, pH 7.4, 25°C
Description: as §1, §2

Endo Si [7] = experiment: as above; details: Endo Si 0.4 mg/mL, deglycosylated antibody 10 mg/mL, linker 1.67 mM, pH 7.4, 25°C
Description: as §1, §2

Endo Se2 [8] = experiment: as above; details: Endo Se2 0.4 mg/mL, deglycosylated antibody 10 mg/mL, linker 1.67 mM, pH 7.4, 25°C
Description: as §1, §2

SMILES	Transglycosylation efficiency (%) (Endo S [1])	Transglycosylation efficiency (%) (Endo S2 [2])	Transglycosylation efficiency (%) (Endo Si [3])	Transglycosylation efficiency (%) (Endo Se2 [4])	Transglycosylation efficiency (%) (Endo S [5]; 0.5 hours)	Transglycosylation efficiency (%) (Endo S [5]; 1 hour)	Transglycosylation efficiency (%) (Endo S [5]; 2 hours)	Transglycosylation efficiency (%) (Endo S [5]; 3 hours)	Transglycosylation efficiency (%) (Endo S [5]; 6 hours)	Transglycosylation efficiency (%) (Endo S2 [6]; 0.5 hours)	Transglycosylation efficiency (%) (Endo S2 [6]; 1 hour)	Transglycosylation efficiency (%) (Endo S2 [6]; 2 hours)	Transglycosylation efficiency (%) (Endo S2 [6]; 3 hours)	Transglycosylation efficiency (%) (Endo S2 [6]; 6 hours)	Transglycosylation efficiency (%) (Endo Si [7]; 0.5 hours)	Transglycosylation efficiency (%) (Endo Si [7]; 1 hour)	Transglycosylation efficiency (%) (Endo Si [7]; 2 hours)	Transglycosylation efficiency (%) (Endo Si [7]; 3 hours)	Transglycosylation efficiency (%) (Endo Si [7]; 6 hours)	Transglycosylation efficiency (%) (Endo Se2 [8]; 0.5 hours)	also measured
CC1=N[C@H]2[C@@H](O1)O[C@H](CN=[N+]=[N-])[C@@H](O[C@@H]1O[C@H](C=NOCCN=[N+]=[N-])[C@H](O)[C@H](O)[C@H]1O)[C@@H]2O	30.5%	82.7%	93.8%	>95%	7.0%	12.3%	17.9%	22.1%	30.5%	22.2%	36.2%	51.9%	61.0%	82.7%	93.4%	93.4%	93.3%	93.1%	93.8%	92.2%	transglycosylation efficiency (in words) (Endo S [5]): weak transglycosylation efficiency; Transglycosylation efficiency (%) (Endo Se2 [8]; 1 hour): 92.9%; Transglycosylation efficiency (%) (Endo Se2 [8]; 2 hours): 92.8%; Transglycosylation efficiency (%) (Endo Se2 [8]; 3 hours): 92.7%; Transglycosylation efficiency (%) (Endo Se2 [8]; 6 hours): 97.2%
CC1=N[C@H]2[C@@H](O1)O[C@H](CO)[C@@H](S[C@@H]1O[C@H](C=NOCCN=[N+]=[N-])[C@H](O)[C@H](O)[C@H]1O)[C@@H]2O	21.1%	87.5%	>95%	94.7%	5.6%	9.3%	13.0%	15.7%	21.1%	33.1%	49.2%	67.7%	77.3%	87.5%	93.2%	95.2%	95.5%	95.5%	95.5%	64.8%	transglycosylation efficiency (in words) (Endo S [5]): weak transglycosylation efficiency; Transglycosylation efficiency (%) (Endo Se2 [8]; 1 hour): 82.1%; Transglycosylation efficiency (%) (Endo Se2 [8]; 2 hours): 92.4%; Transglycosylation efficiency (%) (Endo Se2 [8]; 3 hours): 94.5%; Transglycosylation efficiency (%) (Endo Se2 [8]; 6 hours): 94.7%
CC1=N[C@H]2[C@@H](O1)O[C@H](CO)[C@@H](O[C@@H]1O[C@H](C=NOCCN=[N+]=[N-])[C@H](O)[C@H](O)[C@H]1O)[C@@H]2O	56.4%	>95%	>95%	>95%	15.7%	26.2%	36.6%	43.7%	56.4%	65.7%	82.7%	92.4%	94.8%	97.3%	89.3%	97.1%	97.8%	97.8%	97.6%	96.6%	Transglycosylation efficiency (%) (Endo Se2 [8]; 1 hour): 97.9%; Transglycosylation efficiency (%) (Endo Se2 [8]; 2 hours): 98.0%; Transglycosylation efficiency (%) (Endo Se2 [8]; 3 hours): 97.2%; Transglycosylation efficiency (%) (Endo Se2 [8]; 6 hours): 96.2%
